One block for each compound: values may come before it.
Target: purified catalytic domain of recombinant human TACE (rhTACEc) (Homo sapiens, UniProt P78536, N452Q/S266A)
Assay: TACE kinetic assay: cleavage of internally quenched peptide substrate SPDL-3 (fluorescence)
[1] = Ki (nM), TABLE 6000, Ki printed as class symbols A-D
[2] = Ki (nM), Specific TACE inhibitory activity (Ki values)
[3] = Ki (nM), TACE inhibitory activity, class letters
[4] = Ki Rating, TACE inhibitory activity, Table 3000

Amino acid sequences for entries named in this document (tags omitted). Residues count along the entry.
UniProt P78536, 215-477 S266A/N452Q limits assumed: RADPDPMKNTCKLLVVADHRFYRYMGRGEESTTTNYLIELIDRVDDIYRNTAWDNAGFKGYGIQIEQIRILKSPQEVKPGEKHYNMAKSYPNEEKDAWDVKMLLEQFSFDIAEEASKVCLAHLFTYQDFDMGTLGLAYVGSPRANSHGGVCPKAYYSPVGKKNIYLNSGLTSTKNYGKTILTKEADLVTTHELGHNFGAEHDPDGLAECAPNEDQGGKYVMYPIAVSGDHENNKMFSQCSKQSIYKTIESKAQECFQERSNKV

Structure (SMILES): O=C1NC(=O)[C@](CN2Cc3ccc(F)cc3C2=O)(c2ccc(-c3nccs3)cc2)N1 [Compound 120]
- Ki [2]: 4 nM
- Ki [3]: < 10 nM

Structure (SMILES): O=C1NC(=O)[C@](CN2Cc3ccc(F)cc3C2=O)(c2ccc(-c3cccc(Cl)c3)cc2)N1 [Compound 131]
- Ki [3]: < 10 nM

Structure (SMILES): COc1ccc2c(c1)C(=O)N(C[C@@]1(c3ccc(-c4cc(C)c5[nH]ncc5c4)cc3)NC(=O)NC1=O)C2 [Compound 7008]
- Ki [4]: < 10 nM

Structure (SMILES): O=C1NC(=O)[C@@](CN2Cc3ccc(F)cc3C2=O)(c2ccc(F)cc2)N1 (single isomer, unassigned) [Compound 22]
- Ki [3]: 100 to 1000 nM

Structure (SMILES): O=C1NC(=O)[C@@](CN2Cc3ccc(Cl)cc3C2=O)(c2ccc(Br)cc2)N1 [Compound 137]
- Ki [3]: 100 to 1000 nM

Structure (SMILES): O=C1NC(=O)[C@](CN2Cc3ccc(Cl)cc3C2=O)(c2ccc(-c3ccncc3)cc2)N1 [Compound 143]
- Ki [2]: 1.87 nM
- Ki [3]: < 10 nM

Structure (SMILES): COc1ccc2c(c1)C(=O)N(C[C@@]1(c3ccc(-c4ccc5[nH]nc(C)c5c4)cc3)NC(=O)NC1=O)C2 [Compound 6007]
- Ki [4]: < 10 nM

Structure (SMILES): COc1ccc2c(c1)C(=O)N(C[C@@]1(c3ccc(-c4cc(C)c5c(cnn5C)c4)cc3)NC(=O)NC1=O)C2 [Compound 7020]
- Ki [2]: 2.85 nM
- Ki [4]: < 10 nM

Structure (SMILES): O=C1NC(=O)C(CN2Cc3ccc(F)cc3C2=O)(c2ccc(F)cc2)N1 (stereo not shown) [Compound 17]
- Ki [3]: < 10 nM

Structure (SMILES): CC#CCOc1ccc2c(c1)C(=O)N(C[C@@]1(c3ccc(-c4cnn(CCC)c4)cc3)NC(=O)NC1=O)C2 [Compound 6022]
- Ki [4]: < 10 nM

Structure (SMILES): O=C1NC(=O)[C@](CN2Cc3ccc(F)cc3C2=O)(c2ccc(-c3ccc4c(ccn4S(=O)(=O)c4ccccc4)c3)cc2)N1 [Compound 6002]
- Ki [4]: 10 to 100 nM

Structure (SMILES): O=C1NC(=O)C(CN2Cc3cc(OCCc4c[nH]c5ccccc45)ccc3C2=O)(c2ccc(Br)cc2)N1 (stereo not shown) [Compound 225]
- Ki [3]: < 10 nM

Structure (SMILES): COc1ccc2c(c1)C(=O)N(C[C@@]1(c3ccc(-c4cccc(F)c4)cc3)NC(=O)NC1=O)C2 [Compound 4030]
- Ki [4]: < 10 nM

Structure (SMILES): O=C1NC(=O)C(CN2Cc3ccc(O)cc3C2=O)(c2ccc(-c3ccccn3)s2)N1 (stereo not shown) [Compound 280]
- Ki [3]: < 10 nM

Structure (SMILES): CC#CCOc1ccc2c(c1)CN(C[C@@]1(c3ccc(-c4ccncc4)cc3)NC(=O)NC1=O)C2=O [Compound 236]
- Ki [3]: < 10 nM

Structure (SMILES): CC#CCOc1ccc2c(c1)C(=O)N(C[C@@]1(c3ccc(-c4ccc(F)cn4)cc3)NC(=O)NC1=O)C2 [Compound 4014]
- Ki [4]: < 10 nM

Structure (SMILES): O=C1NC(=O)C(CN2Cc3ccc(F)cc3C2=O)(c2ccc(C(F)(F)F)cc2)N1 (stereo not shown) [Compound 4003]
- Ki [4]: < 10 nM

Structure (SMILES): O=C1NC(=O)[C@](CN2Cc3ccc(OCC#CCO)cc3C2=O)(c2ccc(F)cc2)N1 [Compound 240]
- Ki [3]: < 10 nM

Structure (SMILES): COc1ccc2c(c1)C(=O)N(C[C@@]1(c3cc(-c4ccccc4)nn3-c3nccc(C(F)(F)F)n3)NC(=O)NC1=O)C2 [Compound 9930]
- Ki [1]: < 10 nM

Structure (SMILES): O=C1NC(=O)[C@](CN2Cc3cc(OCc4ccc(-n5cncn5)nc4)ccc3C2=O)(c2ccc(F)cc2)N1 [Compound 4007]
- Ki [4]: < 10 nM

Structure (SMILES): O=C1NC(=O)[C@](CN2Cc3cc(OCc4cccnc4)ccc3C2=O)(c2ccc(F)cc2)N1 [Compound 4005]
- Ki [4]: < 10 nM

Structure (SMILES): O=C1NC(=O)[C@](CN2Cc3ccc(F)cc3C2=O)(c2ccc(-c3cnccn3)cc2)N1 [Compound 117]
- Ki [3]: < 10 nM

Structure (SMILES): CC#CCOc1ccc2c(c1)C(=O)N(C[C@@]1(c3ccc(-c4cccnc4O)cc3)NC(=O)NC1=O)C2 [Compound 4017]
- Ki [4]: < 10 nM

Structure (SMILES): O=C1NC(=O)[C@](CN2Cc3ccc(F)cc3C2=O)(c2ccc(-c3ccc4cn[nH]c4c3)cc2)N1 [Compound 6005]
- Ki [4]: < 10 nM

Structure (SMILES): COc1ccc2c(c1)C(=O)N(CC1(c3ccc(-c4ccc5ncccc5c4)cc3)NC(=O)NC1=O)C2 (stereo not shown) [Compound 169]
- Ki [3]: < 10 nM

Structure (SMILES): CN1C(=O)NC(=O)[C@]1(CN1Cc2ccc(F)cc2C1=O)c1ccc(-c2ccncc2)cc1 [Compound 112]
- Ki [3]: 10 to 100 nM

Structure (SMILES): O=C1NC(=O)C(CN2Cc3ccc(F)cc3C2=O)(c2ccc(-c3cccc4cnccc34)cc2)N1 (stereo not shown) [Compound 165]
- Ki [3]: < 10 nM

Structure (SMILES): CC#CCOc1ccc2c(c1)C(=O)N(C[C@@]1(c3ccc(-c4cnn(CC5CC5)c4)cc3)NC(=O)NC1=O)C2 [Compound 50071338095]
- Ki [4]: < 10 nM

Structure (SMILES): Cn1cc2cc(-c3ccc([C@]4(CN5Cc6ccc(OC(F)F)cc6C5=O)NC(=O)NC4=O)cc3)ccc2n1 [Compound 9739]
- Ki [1]: < 10 nM

Structure (SMILES): O=C1NC(=O)[C@](CN2Cc3ccc(F)cc3C2=O)(c2ccc(-c3ccc(F)cc3)cc2)N1 [Compound 126]
- Ki [3]: < 10 nM

Structure (SMILES): O=C1NC(=O)C(CN2Cc3cc(O)c(Cl)cc3C2=O)(c2ccc(F)cc2)N1 (stereo not shown) [Compound 297]
- Ki [3]: < 10 nM

Structure (SMILES): O=C1NC(=O)[C@](CN2Cc3ccc(F)cc3C2=O)(c2ccc(-c3cccnc3)cc2)N1 [Compound 113]
- Ki [3]: < 10 nM

Structure (SMILES): O=C1NC(=O)C(CNc2ncccn2)(CN2Cc3ccc(Cl)cc3C2=O)N1 (stereo not shown) [Compound 41]
- Ki [3]: 100 to 1000 nM

Structure (SMILES): Cn1cnc2c(-c3ccc([C@]4(CN5Cc6ccc(F)cc6C5=O)NC(=O)NC4=O)cc3)ncnc21 [Compound 3029]
- Ki [4]: < 10 nM

Structure (SMILES): O=C1NC(=O)[C@](CN2Cc3ccc(F)cc3C2=O)(c2ccc(-c3ccc(F)cn3)cc2)N1 [Compound 6000]
- Ki [4]: < 10 nM

Structure (SMILES): O=C1NC(=O)[C@](CN2Cc3ccc(OCC#CCO)cc3C2=O)(c2ccc(-c3cnccn3)cc2)N1 [Compound 4010]
- Ki [4]: < 10 nM

Structure (SMILES): O=C1NC(=O)[C@@](CN2Cc3cc(Br)ccc3C2=O)(c2ccc(F)cc2)N1 [Compound 105]
- Ki [3]: 10 to 100 nM

The next lines start with the values.

- Ki [1]: 10 to 100 nM
Structure (SMILES): COc1ccc2c(c1)C(=O)N(CC1(c3ccc(Oc4ccccn4)cc3)NC(=O)NC1=O)C2 (stereo not shown) [Compound 9608]

- Ki [3]: 100 to 1000 nM
Structure (SMILES): COc1ccc2c(c1)CN(CC1(C3CCNCC3)NC(=O)NC1=O)C2=O (stereo not shown) [Compound 276]

- Ki [1]: < 10 nM
Structure (SMILES): COc1ccc2c(c1)C(=O)N(C[C@@]1(c3cc4cc(Br)cnc4o3)NC(=O)NC1=O)C2 [Compound 9210]

- Ki [3]: < 10 nM
Structure (SMILES): COc1ccc2c(c1)CN(CC1(C3CCN(S(=O)(=O)c4ccc(Br)s4)CC3)NC(=O)NC1=O)C2=O (stereo not shown) [Compound 265]

- Ki [2]: 1.01 nM
- Ki [3]: < 10 nM
Structure (SMILES): COc1cc2c(cc1Cl)C(=O)N(CC1(c3ccc(F)cc3)NC(=O)NC1=O)C2 (stereo not shown) [Compound 296]

- Ki [1]: < 10 nM
Structure (SMILES): COc1ccc2c(c1)C(=O)N(C[C@@]1(c3ccc(Oc4ccc(N5CCOCC5)nc4)cc3)NC(=O)NC1=O)C2 [Compound 9619]

- Ki [3]: < 10 nM
Structure (SMILES): CC#CCOc1ccc2c(c1)CN(C[C@@]1(c3ccc(F)cc3)NC(=O)NC1=O)C2=O [Compound 230]

- Ki [1]: < 10 nM
Structure (SMILES): COc1ccc2c(c1)C(=O)N(C[C@@]1(c3cc4cncnc4s3)NC(=O)NC1=O)C2 [Compound 9223]

- Ki [3]: < 10 nM
Structure (SMILES): COc1ccc2c(c1)C(=O)N(CC1(c3ccc(Br)cc3)NC(=O)NC1=O)C2 (stereo not shown) [Compound 186]

- Ki [1]: < 10 nM
Structure (SMILES): COc1ccc2c(c1)C(=O)N(C[C@@]1(c3cc4cc(Cl)cnc4o3)NC(=O)NC1=O)C2 [Compound 9208]

- Ki [3]: 100 to 1000 nM
Structure (SMILES): CC1(CN2Cc3cc(-c4nccs4)ccc3C2=O)NC(=O)NC1=O (stereo not shown) [Compound 13]

- Ki [1]: 10 to 100 nM
Structure (SMILES): COc1ccc2c(c1)C(=O)N(CC1(C3CC3)NC(=O)NC1=O)C2 (stereo not shown) [Compound 9636]

- Ki [1]: < 10 nM
Structure (SMILES): COc1ccc2c(c1)C(=O)N(CC1(c3ccc(Br)cn3)NC(=O)NC1=O)C2 (stereo not shown) [Compound 9651]

- Ki [1]: < 10 nM
Structure (SMILES): COc1ccc2c(c1)C(=O)N(C[C@@]1(c3csc(NC(C)C)n3)NC(=O)NC1=O)C2 [Compound 9204]

- Ki [3]: 10 to 100 nM
Structure (SMILES): COc1ccc2c(c1)CN(CC1(c3ccc(NC=O)cc3)NC(=O)NC1=O)C2=O (stereo not shown) [Compound 287]

- Ki [3]: < 10 nM
Structure (SMILES): COc1ccc2c(c1)CN(CC1(c3ccc(-c4nccs4)cc3)NC(=O)NC1=O)C2=O (stereo not shown) [Compound 28]

- Ki [3]: 10 to 100 nM
Structure (SMILES): COc1ccc2c(c1)CN(CC1(CN[C@H]3CC[C@@H](N)CC3)NC(=O)NC1=O)C2=O (stereo partly shown) [Compound 293]

- Ki [3]: 100 to 1000 nM
Structure (SMILES): COc1ccc2c(c1)CN(CC1(CNC3CCNCC3)NC(=O)NC1=O)C2=O (stereo not shown) [Compound 289]

- Ki [1]: < 10 nM
Structure (SMILES): COc1ccc2c(c1)C(=O)N(C[C@@]1(c3cc(-c4ccco4)no3)NC(=O)NC1=O)C2 [Compound 9252]

- Ki [3]: 10 to 100 nM
Structure (SMILES): COc1ccc2c(c1)CN(CC1(C3CCN(C(=O)OC(C)(C)C)CC3)NC(=O)NC1=O)C2=O (stereo not shown) [Compound 277]

- Ki [4]: < 10 nM
Structure (SMILES): COc1ccc2c(c1)C(=O)N(C[C@@]1(c3ccc(-n4cccn4)cc3)NC(=O)NC1=O)C2 [Compound 8018]

- Ki [1]: < 10 nM
Structure (SMILES): COc1ccc2c(c1)C(=O)N(C[C@@]1(c3cnn(C4CCC4)c3)NC(=O)NC1=O)C2 [Compound 90031]

- Ki [3]: < 10 nM
Structure (SMILES): COc1ccc2c(c1)CN(CC1(C3CCN(S(=O)(=O)c4ccc(-c5ccon5)s4)CC3)NC(=O)NC1=O)C2=O (stereo not shown) [Compound 258]

- Ki [1]: < 10 nM
Structure (SMILES): COc1ccc2c(c1)C(=O)N(C[C@@]1(c3cc4cc(F)ccc4s3)NC(=O)NC1=O)C2 [Compound 9218]

- Ki [4]: < 10 nM
Structure (SMILES): COc1ccc2c(c1)C(=O)N(C[C@@]1(c3ccc(-c4cnn(CC(C)C)c4)cc3)NC(=O)NC1=O)C2 [Compound 6014]

- Ki [2]: 2.8 nM
- Ki [3]: < 10 nM
Structure (SMILES): O=C1NC(=O)[C@](CN2Cc3ccc(Cl)cc3C2=O)(c2ccc(N3CCOCC3)cc2)N1 [Compound 139]

- Ki [3]: < 10 nM
Structure (SMILES): COc1ccc2c(c1)CN(CC1(c3ccc(N)cc3)NC(=O)NC1=O)C2=O (stereo not shown) [Compound 286]

- Ki [1]: < 10 nM
Structure (SMILES): COc1ccc2c(c1)C(=O)N(C[C@@]1(c3cc4cc(C(F)(F)F)cnc4o3)NC(=O)NC1=O)C2 [Compound 9207]

- Ki [3]: 10 to 100 nM
Structure (SMILES): COc1ccc2c(c1)CN(CC1(CNC3CCN(C(=O)OC(C)(C)C)CC3)NC(=O)NC1=O)C2=O (stereo not shown) [Compound 288]

- Ki [1]: < 10 nM
Structure (SMILES): COc1ccc2c(c1)C(=O)N(C[C@@]1(c3ccc(-c4ncccc4C)cc3)NC(=O)NC1=O)C2 [Compound 9902]

- Ki [3]: < 10 nM
Structure (SMILES): COc1ccc2c(c1)CN(CC1(c3ccc(-c4ccccc4)s3)NC(=O)NC1=O)C2=O (stereo not shown) [Compound 264]

- Ki [4]: 10 to 100 nM
Structure (SMILES): CC(C)(C)CCOc1ccc2c(c1)CN(C[C@@]1(c3ccc(F)cc3)NC(=O)NC1=O)C2=O [Compound 4008]

- Ki [4]: < 10 nM
Structure (SMILES): O=C1NC(=O)C(CN2Cc3ccc(OCC#CC4CC4)cc3C2=O)(c2ccc(F)cc2)N1 (stereo not shown) [Compound 8007]

- Ki [4]: < 10 nM
Structure (SMILES): COc1ccc2c(c1)C(=O)N(C[C@@]1(c3ccc(-c4c(N)noc4C)cc3)NC(=O)NC1=O)C2 [Compound 4023]
